Results from ChEMBL document CHEMBL5518160, “Progress in the development of TRPV1 small-molecule antagonists: Novel Strategies for pain management” (Eur J Med Chem, 2023).

Amino acid sequences for entries named in this document (tags omitted).
UniProt O35433, whole entry: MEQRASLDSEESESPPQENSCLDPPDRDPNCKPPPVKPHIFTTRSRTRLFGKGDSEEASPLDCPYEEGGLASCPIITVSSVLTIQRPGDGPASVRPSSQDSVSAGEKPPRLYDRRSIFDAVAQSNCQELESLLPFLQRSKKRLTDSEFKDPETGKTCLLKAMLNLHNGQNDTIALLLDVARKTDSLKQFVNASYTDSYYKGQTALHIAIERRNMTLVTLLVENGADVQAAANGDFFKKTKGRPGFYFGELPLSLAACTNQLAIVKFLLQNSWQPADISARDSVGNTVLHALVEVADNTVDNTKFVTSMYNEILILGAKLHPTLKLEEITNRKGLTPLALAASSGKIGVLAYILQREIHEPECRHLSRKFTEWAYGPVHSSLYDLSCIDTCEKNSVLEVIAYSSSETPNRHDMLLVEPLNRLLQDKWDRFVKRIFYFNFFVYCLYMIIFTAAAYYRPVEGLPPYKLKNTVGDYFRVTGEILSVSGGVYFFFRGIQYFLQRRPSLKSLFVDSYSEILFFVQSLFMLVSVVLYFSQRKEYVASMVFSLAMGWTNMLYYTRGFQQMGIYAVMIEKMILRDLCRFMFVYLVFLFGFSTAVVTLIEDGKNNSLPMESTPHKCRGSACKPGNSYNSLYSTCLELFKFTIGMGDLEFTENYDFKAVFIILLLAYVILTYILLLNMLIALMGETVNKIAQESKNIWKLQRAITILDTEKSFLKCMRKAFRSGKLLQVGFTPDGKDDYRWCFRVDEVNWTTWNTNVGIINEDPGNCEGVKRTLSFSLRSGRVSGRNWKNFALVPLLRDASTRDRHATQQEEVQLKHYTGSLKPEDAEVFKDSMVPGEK

Target: Transient receptor potential cation channel subfamily V member 1 (Rattus norvegicus, UniProt O35433)
Assay: Antagonist activity at rat TRPV1 assessed as inhibition of pH-induced increase in intracellular Ca2+ level
Type: cell-based

IC50: 6 nM
SMILES: CC(C)(C)c1ccc(NC(=O)N2CCN(c3ncccc3Cl)CC2)cc1
